Results taken from ChEMBL document CHEMBL2176920, “Structure-based selectivity optimization of piperidine-pteridine derivatives as potent Leishmania pteridine reductase inhibitors” (J Med Chem, 2012).

Key:
Pteridine reductase 1 = molecular target: T1, Pteridine reductase 1 (Leishmania major, UniProt Q01782)
T1 sequence (Q01782 whole entry): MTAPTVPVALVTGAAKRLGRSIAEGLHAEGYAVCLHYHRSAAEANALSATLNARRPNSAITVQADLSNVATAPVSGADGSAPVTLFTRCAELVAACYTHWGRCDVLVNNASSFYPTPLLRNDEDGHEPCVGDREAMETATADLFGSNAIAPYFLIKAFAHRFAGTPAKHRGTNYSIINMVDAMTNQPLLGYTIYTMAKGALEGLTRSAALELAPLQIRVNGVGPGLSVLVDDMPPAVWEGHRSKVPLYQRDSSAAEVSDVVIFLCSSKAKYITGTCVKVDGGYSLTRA

[1] = Selectivity index, ratio of Ki for human DHFR to Ki for Leishmania major PTR1

| Structure (SMILES) | Ki (Pteridine reductase 1) [µM] | Ratio Ki [1] |
| --- | --- | --- |
| CCOC(=O)CN(Cc1cnc2nc(N)nc(N)c2n1)c1ccc(C(=O)N2CCC(C(=O)OC)CC2)cc1 | 0.1 |  |
| COC(=O)C1CCN(C(=O)c2ccc(N(C)Cc3cnc4nc(N)nc(N)c4n3)cc2)CC1 |  | 21 |
| COC(=O)C1CCN(C(=O)c2ccc(N(CCO)Cc3cnc4nc(N)nc(N)c4n3)cc2)CC1 | 0.03 |  |
